# Yeast mating assay 2: variants of the scFv Ab-95

Target: peptide PDVDLGDISGINAS, taken from heptad repeat 2 (HR2) of SARS-CoV-2 spike.

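AAYL52 was designed without a model: most single CDR substitutions and a random sample of double and triple ones. The scFvs were displayed on barcoded MATa yeast, the peptide on MATalpha yeast. Pairs that bind mate more often; barcode pairs of the diploids are counted by sequencing. A regression on co-assayed BCL2-family reference pairs converts the normalised counts of each replicate to an apparent Kd. Mating was done three times.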

Ab-95 is the parent antibody, in scFv form: VH, then a 15-residue (Gly4Ser)3 linker, then VL. The heavy chain is unchanged in all variants.
VH: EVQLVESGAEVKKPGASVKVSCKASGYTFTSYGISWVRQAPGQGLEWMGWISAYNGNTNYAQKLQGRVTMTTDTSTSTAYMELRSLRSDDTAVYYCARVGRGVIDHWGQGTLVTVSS
VL: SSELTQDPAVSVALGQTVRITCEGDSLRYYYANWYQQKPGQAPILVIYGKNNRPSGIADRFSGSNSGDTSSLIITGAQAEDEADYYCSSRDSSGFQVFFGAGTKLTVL

Variants are written as CDR1, CDR2 and CDR3 of the light chain (limits as in the source). Parent: EGDSLRYYYAN, GKNNRPS, SSRDSSGFQVF. The read-out is the apparent dissociation constant on a log10 scale (nM): the lower, the stronger. Averages over replicates are reported, and they cover detected replicates only. "nd" means that the variant was in the library but no mating with the target was seen in that replicate; the authors take this as a sign of poor binding, and no number exists. Empty control strains, which show no peptide, gave a signal in 28% of pairings with library AAYL52; the median was 3.91 and 95% of these signals were weaker than 2.90. No background was subtracted. The control count says in how many pairings with the empty strains this scFv gave a signal, with their mean in brackets. For reference, the parent read 2.31 as the reference entry and 2.25 as a member of this library.

"log10 Kd, replicates","mean, log10 nM",signal with controls,CDR-L1,CDR-L2,CDR-L3
2.85 / 2.75 / 3.69,3.10,2/9 (3.72),EGDSLGIYYAN,GKNNRPY,SSRDSSGFQVF
3.16 / 2.54 / 3.11,2.94,5/9 (4.31),EGDELAYYCAN,GKNNRPS,SSRDSSGFQVF
nd / 3.61 / nd,3.61,1/9 (3.42),EGDSLRYGYAN,GKNNVPS,SSPDSSGFQVF
2.46 / 2.64 / 2.82,2.64,0/9,EGDSLRYYYAN,GKNNRPS,SGRDSSGFKKF
3.16 / 3.24 / 3.88,3.43,5/9 (3.74),EGDSLRHYYAN,GKNNEPA,SSRDSSGFQVF
nd / nd / nd,nd,1/9 (4.64),EEDSLRYYYAN,GKNNRPS,SSPDSSGFQVF
nd / nd / nd,nd,0/9,EGDSLRYYYAP,GKNNRPS,SSRKSSGFMVF
2.02 / 1.87 / 1.18,1.69,5/9 (4.16),EGDSLRYYAAN,GKNNRPS,SWRDSSIFQVF
nd / nd / nd,nd,1/9 (2.33),SGQSLRYYYAN,GENNRPS,SSRDSSGFQVF
nd / 3.88 / nd,3.88,2/9 (4.07),EPDSLRYYYAN,GKNQRIS,SSRDSSGFQVF
3.50 / 5.19 / 3.53,4.07,3/9 (3.99),EGDQLRYYYAN,GLNNRPS,SSRDSSGFQVS
3.00 / nd / 2.87,2.93,2/9 (3.78),EGDSLRYYYAN,GKANRPS,SSRDSDGFQSF
nd / 2.84 / 3.58,3.21,1/9 (3.92),EGDSLRYYYAN,AKNNRPS,STRDSSGFQVF
4.66 / 4.77 / 4.21,4.55,3/9 (4.60),EGDSLRYYYAN,GKNNRPW,SSFDSSGFQVG
3.98 / 3.64 / 4.06,3.90,0/9,EGDSLRYYYAN,GKNNRPS,FSRDSSGFSVP
nd / nd / nd,nd,0/9,EGDSLRYYYAN,LKNNRPS,SKRDSSGFQKF
nd / 5.64 / 4.66,5.15,2/9 (4.39),EGDSLRYYYAN,GKNNRAS,SSVDSSGFQVI
nd / 3.95 / nd,3.95,2/9 (4.01),EGDSLRYYYAI,GKNNRPS,SSRDSSGSQMF
4.12 / nd / 3.71,3.91,3/9 (4.21),EGDQLRYYYAN,VKNNRPS,SSRDSSGFQVR
3.52 / 4.68 / 3.68,3.96,4/9 (3.99),AGDTLRYYYAN,GKNYRPS,SSRDSSGFQVF
nd / nd / 3.51,3.51,2/9 (3.79),EGDSLRYYYAR,GKYNRPS,SSRDSSGFQPF
3.37 / nd / nd,3.37,5/9 (3.79),EWDSLRYYYAN,GKTNRPS,SSRDSSGKQVF
nd / 4.22 / 4.30,4.26,4/9 (4.52),EFDSLRYYYAN,GKSNRPS,SSGDSSGFQVF
3.27 / 4.03 / 3.10,3.47,0/9,EGDTLRMYYAN,GKNWRPS,SSRDSSGFQVF
3.75 / 2.78 / 2.40,2.98,5/9 (4.58),EGDSLRYYYAN,GKNGRPS,SQRDSSGDQVF
nd / nd / 3.25,3.25,1/9 (3.16),EGDTQRYYYAN,GKGNRPS,SSRDSSGFQVF
nd / 3.25 / nd,3.25,0/9,EWDSLLYYYAN,GKNNRWS,SSRDSSGFQVF
1.98 / 2.36 / 1.74,2.03,1/9 (5.15),EGDSLRNYYAN,GKNIRPS,SSRDSLGFQVF
3.54 / 3.62 / 3.13,3.43,4/9 (4.33),EGDSLRYYYAN,GKNNRLS,SSRKSSGVQVF
3.09 / 2.66 / 2.69,2.81,4/9 (3.57),EGDPLRYYYAN,GHNMRPS,SSRDSSGFQVF
3.39 / 3.29 / 3.51,3.40,5/9 (4.37),EGDSRRYYYAN,GKNNRPS,SSRDSSGFQVL
4.74 / nd / 4.42,4.58,2/9 (4.50),EGDSLRYTIAN,IKNNRPS,SSRDSSGFQVF
1.93 / 2.20 / 1.93,2.02,0/9,FGDSLRYYYAN,NANNRPS,SSRDSSGFQVF
2.00 / 1.82 / 1.50,1.77,3/9 (4.30),EGDSLRYNYAN,GKNNRTS,SSRDSSGFQFF
1.56 / 1.40 / 0.87,1.28,3/9 (4.06),EGDSLRYEYAN,GKNNRPW,SSRDSSGFQQF
nd / nd / nd,nd,2/9 (3.33),EGDSLRYYYAN,GKYNRPS,SSWDPSGFQVF
nd / nd / nd,nd,4/9 (3.53),EGDSLRYYYDN,GKNNRPS,SSRDSHGFQVF
nd / 4.72 / nd,4.72,4/9 (4.35),EGDSLRYYYTN,YKNNRCS,SSRDSSGFQVF
1.99 / 1.95 / 2.32,2.09,2/9 (4.19),HGDRLRYYYAN,GKNNRPS,SSRDSSGFQVI
2.29 / 2.34 / 2.45,2.36,2/9 (3.69),EGDSLRYYKAN,GKNNLPS,SSRDSSGFQVF
2.70 / nd / 3.30,3.00,0/9,EGDALRYYYAN,GKNNRPS,SSRDSSGFQVA
3.51 / nd / nd,3.51,5/9 (3.39),EGDSLRYYYAE,TKANRPS,SSRDSSGFQVF
3.86 / 3.76 / 3.28,3.63,4/9 (4.24),EGDSWRYYYAN,GKNRRPS,SSRDSSGFQVF
3.11 / 5.49 / nd,4.30,1/9 (2.58),EGDSLRYYIAN,GKNNRPS,SSRNGSGFQVF
nd / nd / nd,nd,1/9 (3.16),EQSSLRYYYAN,GKNNRPS,SSRDSSGFQVS
2.58 / 2.82 / 2.32,2.57,1/9 (3.42),EWDSLRYIYAN,GKNNRPK,SSRDSSGFQVF
1.88 / 2.09 / 1.98,1.98,3/9 (3.86),EGKSLRYYYAN,GQNNRPS,SSRDSSGFQVC
3.84 / 3.11 / 2.32,3.09,0/9,EGDSLRYYWAN,GKNNRPS,SSRDSSGMQVF
3.65 / 2.84 / 3.05,3.18,2/9 (3.87),YGDSLRYYYAN,GKNNRPR,SSRDSLGFQVF

For reference, 7 entries of the list once more:

{"CDR-L1": "EQSSLRYYYAN", "CDR-L2": "GKNNRPS", "CDR-L3": "SSRDSSGFQVS", "log10 Kd, replicates": "nd / nd / nd", "mean, log10 nM": "nd", "signal with controls": "1/9 (3.16)"}
{"CDR-L1": "EGDSLRYYIAN", "CDR-L2": "GKNNRPS", "CDR-L3": "SSRNGSGFQVF", "log10 Kd, replicates": "3.11 / 5.49 / nd", "mean, log10 nM": "4.30", "signal with controls": "1/9 (2.58)"}
{"CDR-L1": "EGDSLRYYYAN", "CDR-L2": "AKNNRPS", "CDR-L3": "STRDSSGFQVF", "log10 Kd, replicates": "nd / 2.84 / 3.58", "mean, log10 nM": "3.21", "signal with controls": "1/9 (3.92)"}
{"CDR-L1": "EGDELAYYCAN", "CDR-L2": "GKNNRPS", "CDR-L3": "SSRDSSGFQVF", "log10 Kd, replicates": "3.16 / 2.54 / 3.11", "mean, log10 nM": "2.94", "signal with controls": "5/9 (4.31)"}
{"CDR-L1": "EGDSLRYEYAN", "CDR-L2": "GKNNRPW", "CDR-L3": "SSRDSSGFQQF", "log10 Kd, replicates": "1.56 / 1.40 / 0.87", "mean, log10 nM": "1.28", "signal with controls": "3/9 (4.06)"}
{"CDR-L1": "EGDSLRYYYAN", "CDR-L2": "GKNGRPS", "CDR-L3": "SQRDSSGDQVF", "log10 Kd, replicates": "3.75 / 2.78 / 2.40", "mean, log10 nM": "2.98", "signal with controls": "5/9 (4.58)"}
{"CDR-L1": "EGDSLRYYYDN", "CDR-L2": "GKNNRPS", "CDR-L3": "SSRDSHGFQVF", "log10 Kd, replicates": "nd / nd / nd", "mean, log10 nM": "nd", "signal with controls": "4/9 (3.53)"}

From the AlphaSeq antibody data of Engelhart et al. 2022 (doi:10.1038/s41597-022-01779-4), copy in the FLAb collection.